This experiment addresses Amyloid-beta precursor protein (Homo sapiens, UniProt P05067). The experiment in a line: Binding affinity to Beta amyloid aggregates in Alzheimer's disease patient brain by competitive binding assay. Put shortly:
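Competition binding against ¹⁸F-AV-45 (0.04–0.06 nM, diluted in PBS) in postmortem AD brain homogenate (20–25 µg per assay). Competitors were serially diluted 10⁻⁵–10⁻¹⁰ M in PBS with 0.1% bovine serum albumin, in a final volume of 0.5 mL. Inhibition constant (Ki) derived from displacement.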

By UniProt entry, the sequences of proteins in these tests, tags left out.
UniProt P05067, whole entry: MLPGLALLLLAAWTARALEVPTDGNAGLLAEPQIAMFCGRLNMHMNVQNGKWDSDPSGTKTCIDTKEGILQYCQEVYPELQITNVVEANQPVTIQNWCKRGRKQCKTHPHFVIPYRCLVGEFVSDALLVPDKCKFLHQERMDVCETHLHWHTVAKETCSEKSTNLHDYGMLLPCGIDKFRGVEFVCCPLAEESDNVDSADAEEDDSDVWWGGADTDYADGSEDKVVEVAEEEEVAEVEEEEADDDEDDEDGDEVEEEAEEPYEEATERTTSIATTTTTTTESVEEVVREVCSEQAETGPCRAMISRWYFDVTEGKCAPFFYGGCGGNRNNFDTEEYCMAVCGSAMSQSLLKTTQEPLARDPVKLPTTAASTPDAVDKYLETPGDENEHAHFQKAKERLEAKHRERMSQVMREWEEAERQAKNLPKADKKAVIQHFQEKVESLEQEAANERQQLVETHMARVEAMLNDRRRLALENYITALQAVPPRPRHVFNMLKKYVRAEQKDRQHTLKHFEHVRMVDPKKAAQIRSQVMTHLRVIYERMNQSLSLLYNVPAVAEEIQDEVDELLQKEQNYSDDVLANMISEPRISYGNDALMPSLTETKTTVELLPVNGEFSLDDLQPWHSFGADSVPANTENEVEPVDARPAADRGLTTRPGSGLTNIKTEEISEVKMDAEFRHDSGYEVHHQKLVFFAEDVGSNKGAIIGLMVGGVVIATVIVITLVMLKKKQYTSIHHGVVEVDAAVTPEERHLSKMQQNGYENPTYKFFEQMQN

pKi: −log10 of the molar value. Bounds are passed on as bounds.

On to `Cc1ccc2c(c1)sc(-c1ccc(N(C)C)cc1)[n+]2C` [THIOFLAVIN T], for which the negative-log Ki (pKi) (usually the Ki on a negative log10 scale, so that one unit is a factor of ten) is less than 6.00.
